Laboratory results reported in PubChem BioAssay AID1441 (NMMLSC, 2008).
Only a part is listed here, and it is no random draw. Some of these compounds have results that are not shown, active ones among them. The source made the active and inactive calls. No rule for the calls is given here.

By UniProt entry, the sequences of proteins in these tests, tags left out.
UniProt O15492, whole entry, looked up: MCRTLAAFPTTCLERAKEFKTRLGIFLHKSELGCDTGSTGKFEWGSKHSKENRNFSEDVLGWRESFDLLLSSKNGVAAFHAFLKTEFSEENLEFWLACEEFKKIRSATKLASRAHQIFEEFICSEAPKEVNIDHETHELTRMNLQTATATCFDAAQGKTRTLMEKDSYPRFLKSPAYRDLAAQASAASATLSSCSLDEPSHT
UniProt P09471, whole entry, looked up: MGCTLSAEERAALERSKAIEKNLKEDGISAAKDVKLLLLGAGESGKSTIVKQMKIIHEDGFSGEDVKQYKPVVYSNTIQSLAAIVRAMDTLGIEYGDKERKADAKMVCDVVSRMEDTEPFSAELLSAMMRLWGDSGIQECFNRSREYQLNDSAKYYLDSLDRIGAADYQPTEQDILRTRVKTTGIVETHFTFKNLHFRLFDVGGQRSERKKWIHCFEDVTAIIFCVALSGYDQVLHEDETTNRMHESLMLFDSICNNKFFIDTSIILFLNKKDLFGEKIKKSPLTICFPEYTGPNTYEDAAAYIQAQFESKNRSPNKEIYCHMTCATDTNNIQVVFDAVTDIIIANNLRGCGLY

Molecular target: Regulator of G-protein signaling 16 (Homo sapiens) + Guanine nucleotide-binding protein G(o) subunit alpha (Homo sapiens) (UniProt O15492+P09471)
Test: modulators of RGS16 binding to Galphao, primary screen, biochemical, human proteins, multiplexed bead flow cytometry (AID 1441);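 also: Galphao activated by GDP with aluminum fluoride before binding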
Settings: bead-based flow cytometry RGS16-Galphao binding, fluorescence; at 10 µM; actives lie on both sides

Question: `O=C(OC1CN2CCC1CC2)C(CO)(c1ccccc1)c1ccccc1` (stereo unspecified) was tested. Which binding response (% of control) did it give?
Answer: inactive: 102%

Question: Which binding response (% of control) does the source give for `COc1ccc(Br)c(C(=O)NCC2(N3CCCCC3)CCCCC2)c1` here?
Answer: inactive: 101%

Question: `CN(C)c1cccc(C(=O)NCC2(N(C)C)CCCCC2)c1` was tested. Which binding response (% of control) did it give?
Answer: inactive: 102%

Question: For `COc1cccc(C(=O)NCC2(N3CCCCC3)CCCCC2)c1`, which binding response (% of control) is on record?
Answer: inactive: 97%

Question: Which binding response (% of control) does the source give for `CN(C)C1CCCC1OC(=O)C(O)(c1ccccc1)c1ccccc1` (stereo unspecified) here?
Answer: inactive: 104%

Question: For `Cc1ccccc1C(=O)NCC1(N2CCCCC2)CCCCC1`, which binding response (% of control) is on record?
Answer: inactive: 108%

Question: For `C=CCN1CCN(CCOC(=O)C(O)(c2ccccc2)c2ccccc2)CC1`, which binding response (% of control) is on record?
Answer: inactive: 100%

Question: For `CCN1CCCC(OC(=O)C2(O)c3ccccc3C=Cc3ccccc32)C1` (stereo unspecified), which binding response (% of control) is on record?
Answer: inactive: 131%

Question: For `O=C(NCC1(N2CCCCC2)CCCCC1)c1cc([N+](=O)[O-])ccc1Cl`, which binding response (% of control) is on record?
Answer: inactive: 105%

Question: How did the binding response (% of control) turn out when `CCN(CC)CC(C)C(C)OC(=O)C(O)(c1ccccc1)c1ccccc1` (stereo unspecified) was run?
Answer: inactive: 97.7%

Question: `CC(C)N1C(=O)CC2(CCN(CCOC(=O)C(O)(c3ccccc3)c3ccccc3)CC2)C1=O` was tested. Which binding response (% of control) did it give?
Answer: inactive: 96.5%
